Test results published in BindingDB's records for 1846919.

Amino acid sequences for entries named in this document (tags omitted).
UniProt P41143, whole entry: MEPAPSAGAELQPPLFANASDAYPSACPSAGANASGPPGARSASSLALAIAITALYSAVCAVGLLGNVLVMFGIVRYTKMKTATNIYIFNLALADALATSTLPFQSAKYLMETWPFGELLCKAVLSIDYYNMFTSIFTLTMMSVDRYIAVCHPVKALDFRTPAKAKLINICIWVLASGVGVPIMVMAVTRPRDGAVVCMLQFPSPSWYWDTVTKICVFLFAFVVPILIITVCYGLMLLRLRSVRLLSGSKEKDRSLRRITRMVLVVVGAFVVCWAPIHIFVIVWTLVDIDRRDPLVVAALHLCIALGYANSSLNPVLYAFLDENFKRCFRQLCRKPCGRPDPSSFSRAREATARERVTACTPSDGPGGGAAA

Target: Delta-type opioid receptor (Homo sapiens, UniProt P41143)
Experiment: ChEBML_146444
Method: Compound was evaluated for the opioid receptor delta affinity

CC1c2cccc3cccc(c23)C1C(=O)N(C)[C@H]1CCC2(CCCO2)C[C@@H]1N1CCCC1 (stereo partly specified)
Ki: 578 nM

Some compounds may have been tested in ways that are not shown here.
